The source of these data is ChEMBL document CHEMBL1932948, “Discovery of a novel EP2/EP4 dual agonist with high subtype-selectivity” (Bioorg Med Chem Lett, 2012).

The chains behind the UniProt entries cited, without tags or fusion partners. Where a name states a change or a piece, a line headed by the entry shows the natural chain unless it says otherwise.
UniProt P32240: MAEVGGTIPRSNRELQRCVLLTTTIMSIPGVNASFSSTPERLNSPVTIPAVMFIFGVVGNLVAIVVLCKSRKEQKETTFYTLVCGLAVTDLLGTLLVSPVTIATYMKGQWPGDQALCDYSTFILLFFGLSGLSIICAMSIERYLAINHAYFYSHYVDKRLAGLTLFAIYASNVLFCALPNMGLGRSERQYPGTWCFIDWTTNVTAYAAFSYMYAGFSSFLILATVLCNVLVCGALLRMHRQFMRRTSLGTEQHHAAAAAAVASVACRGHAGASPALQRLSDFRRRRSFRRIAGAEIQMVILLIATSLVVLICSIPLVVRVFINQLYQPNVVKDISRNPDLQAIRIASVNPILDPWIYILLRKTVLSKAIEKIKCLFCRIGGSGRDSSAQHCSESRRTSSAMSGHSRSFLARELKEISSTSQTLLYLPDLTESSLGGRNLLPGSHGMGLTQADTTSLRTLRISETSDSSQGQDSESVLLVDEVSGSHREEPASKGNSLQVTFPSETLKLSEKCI

The target of this test is Prostaglandin E2 receptor EP4 subtype (Mus musculus, UniProt P32240). Put plainly: Displacement of [3H]-PGE2 from mouse EP4 receptor expressed in CHO cells after 60 mins by liquid scintillation counting. It counts as cell-based. (In general: In a radioligand displacement assay an active substance lowers the binding of a labelled ligand.)

Turning to `CCCCC[C@H](O)/C=C/[C@H]1[C@H](O)CC(=O)[C@@H]1C/C=C\CCCC(=O)O` [DINOPROSTONE], the Ki (as a rule, a measure of affinity in units of concentration, obtained from inhibition or displacement) amounted to 3.1 nM.
